Values of other authors in PMC12645430.

Target: Thioredoxin 1 (Escherichia coli) [thioredoxin: P0AA25]

For “DNA-directed DNA polymerase (gp5) (from UniProt P00581)”, the Kd is listed as 5 nM.
